Compound activity as filed in PubChem BioAssay.
GIV Gai3 FP: blocks GIV peptide binding to rat Galpha-i3. P08753. Galpha-i3/FITC-GIV peptide fluorescence polarization, 90 min; stronger effect = lower value; scaled: aluminum fluoride 0%, vehicle 100%. percent of control (FP), % (test concentration not listed). actives 0.42% (n = 210,000). AID 1224905;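 active means replicate mean at 85% of control or lower, very high polarization wells dropped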;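 further: wells of about 15 µL received 100 nL stock; the first replicate is given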
HCMV UL50-53 inh: disrupts HCMV UL50-UL53 complex binding | hit rate 0.15% among 190,000 | inhibition, % (no concentration beside the values) | AID 1918969 | HTRF UL50-UL53 interaction, normalized percent inhibition; in the data active = inhibition above about 27%, passing the limit was not always enough
Each line names hits and unclear results; the compound was inactive in the other large screens. Hits are enriched below; roughly 0.46% of the tested compounds scored in any of these assays.

CCOC(=O)C1CCCN(C(=O)Cn2c(=O)c3ccccc3n3c(=S)sc(-c4cccc(F)c4)c23)C1 (stereo unspecified)	GIV Gai3 FP 77.0
COc1ccc(S(=O)(=O)c2cc(NS(=O)(=O)c3ccccc3)cc(C(C)C)c2O)cc1	none (no result: GIV Gai3 FP)
CCn1c2ccc(C)cc2c2nc(C)sc21	HCMV UL50-53 inh 53.6
Cc1nc2c3cc(F)ccc3n(CCN3CCOCC3)c2s1	none
Cc1nc(Nc2ccc(NC(=O)C(C)C)cc2)cc(N(C)C)n1	none
CN(C)c1ccc(N=Cc2nc(-c3ccccc3)oc2O)cc1	GIV Gai3 FP -23.8 (no result: HCMV UL50-53 inh)
CN(C)c1ccc(N=Cc2nc(-c3ccccc3)oc2OC(=O)c2ccccc2)cc1	none (no result: GIV Gai3 FP)
O=c1oc2cc(S(=O)(=O)N3CCCC3)ccc2c2ccc(S(=O)(=O)N3CCCC3)cc12	none
CCOc1ccc(NC(=O)CSc2nc3ccccc3n2S(=O)(=O)c2ccc(Br)cc2)cc1	none (no result: HCMV UL50-53 inh)
C=CCNc1nc2c(C)cccn2c(=O)c1/C=C1\SC(=S)NC1=O	GIV Gai3 FP -41.9 (no result: HCMV UL50-53 inh)
Cc1cccn2c(=O)c(/C=C3\SC(=S)N(Cc4ccccc4)C3=O)c(NCc3ccco3)nc12	none (no result: HCMV UL50-53 inh)
C(=N\c1sc2c(c1-c1nc3ccccc3s1)CCCC2)/c1ccco1	none (no result: GIV Gai3 FP)
Cc1cc(C)nc(NC(C(=O)O)C(C)C)n1 (stereo unspecified)	none
NNC(=O)c1cncc(C#Cc2ccccc2)c1	none
Cc1ccc(CSc2nc(C(=O)O)ccc2C#N)cc1	HCMV UL50-53 inh 53.9 (no result: GIV Gai3 FP)
Cc1ccc(CSc2nc(-c3cccs3)ccc2C#N)cc1	none
CCC1CN(S(=O)(=O)c2cc(-c3onc(C)c3C)ccc2OC)c2cc(Cl)ccc2O1 (stereo unspecified)	none
Cc1cc(C)n(CCCNC(=O)CSc2nnc(-c3c[nH]c4ccccc34)o2)n1	none (no result: GIV Gai3 FP)
COc1ccccc1NC(=O)Nc1ccnn1C1CCCCC1	none (no result: GIV Gai3 FP)
COc1ccccc1NC(=O)Nc1ccnn1Cc1ccccc1	HCMV UL50-53 inh 85.3 (no result: GIV Gai3 FP)
O=C(CN1C(=O)C2CCCC2=Nc2ccccc21)Nc1cccc(Br)c1 (stereo unspecified)	none
CCOC(=O)Cn1cc(/C=C2\C(=O)NC(=O)N(c3ccc(F)cc3)C2=O)c2ccccc21	GIV Gai3 FP -36.2 (no result: HCMV UL50-53 inh)
CCOC(=O)Cn1cc(/C=C2\C(=O)NC(=O)N(c3ccc(Br)cc3)C2=O)c2ccccc21	none
O=C(c1ccccc1)N1CCOc2ccc(COCc3cccc(F)c3)cc2C1	none (no result: HCMV UL50-53 inh)
NS(=O)(=O)c1ccc(NC(=O)CN2C(=O)S/C(=C/c3ccccc3)C2=O)cc1	none
CCC1=C(c2ccc(C)cc2)S(=O)(=O)N=C1N1CCC(C(=O)N2CCC(C)CC2)CC1	none
CC1Cc2cc(-c3cc(C(=O)Nc4nnc(C(C)C)s4)no3)ccc2O1 (stereo unspecified)	none
COc1ccc(/C(O)=C(/C#N)c2nc3ccccc3s2)cc1	none (no result: GIV Gai3 FP)
COc1ccc(N2CCN(/C=C(\C#N)c3nc4ccccc4s3)CC2)cc1	GIV Gai3 FP -61.0
CCc1ccccc1N1C(=O)NC(=O)/C(=C\c2ccc(N(CC)CC)o2)C1=O	GIV Gai3 FP -59.2
CCOc1ccc(N2C(=O)NC(=O)/C(=C\c3ccc(Br)o3)C2=O)cc1	none (no result: HCMV UL50-53 inh)
CC(C)n1ncc2c1N=C(c1cccs1)N(C)C2c1ccccc1 (stereo unspecified)	none (no result: GIV Gai3 FP)
N#Cc1c(N)nc(SCC(N)=O)c(C#N)c1-c1ccc(Br)cc1	HCMV UL50-53 inh 66.1
CCOC(=O)CSc1nc(N)c(C#N)c(-c2ccc(OCC)cc2)c1C#N	HCMV UL50-53 inh 43.6
CCOC(=O)CC(=O)CSc1nc(N)c(C#N)c(-c2cccs2)c1C#N	none (no result: HCMV UL50-53 inh)
N#Cc1c(N)nc(SCC(=O)c2ccc3ccccc3c2)c(C#N)c1-c1ccccc1	HCMV UL50-53 inh 20.8
CC(C)(C)C(=O)CSc1nc(N)c(C#N)c(-c2cccs2)c1C#N	HCMV UL50-53 inh 59.7 (no result: GIV Gai3 FP)
CCOc1ccc(-c2c(C#N)c(N)nc(SCC(=O)c3ccccc3)c2C#N)cc1	none
COC(=O)CSc1nc(N)c(C#N)c(-c2ccccc2)c1C#N	none
COc1cc(-c2c(C#N)c(N)nc(SCC(N)=O)c2C#N)cc(OC)c1OC	none (no result: HCMV UL50-53 inh)
N#Cc1ccc(-c2cccs2)nc1SCc1ccncc1	none (no result: GIV Gai3 FP)
O=C(Nc1cccc(-c2nc3ccccc3[nH]2)c1)C1CCCO1 (stereo unspecified)	none
Cc1ccc(-c2nn(-c3ccccc3)cc2C(=O)N(C)C2CCN(C)CC2)cc1	none (no result: GIV Gai3 FP)
O=C(CN1c2ccc(Br)cc2-c2ccccc2S1(=O)=O)NCc1ccccn1	none
CCNCC(=O)NCc1ccc(Cl)cc1	none (no result: GIV Gai3 FP)
CCC1CCCCN1Cc1c(O)ccc2cc(-c3nc(C)cs3)c(=O)oc12 (stereo unspecified)	none (no result: GIV Gai3 FP)
CC1CCCCN1Cc1c(O)ccc2cc(-c3nc4ccccc4s3)c(=O)oc12 (stereo unspecified)	GIV Gai3 FP -31.8
N#CCc1c(C#N)c(N)nc(Nc2ccccc2)c1C#N	HCMV UL50-53 inh 72.0 (no result: GIV Gai3 FP)
CSc1nc(-c2ccccc2)nc(Nc2ccccc2)c1C#N	none
Cc1c(/C=C2\SC(c3ccccc3)=NC2=O)c(=O)n(-c2ccccc2)n1C	GIV Gai3 FP -4.0 (no result: HCMV UL50-53 inh)
O=C1N=C(c2ccccc2)S/C1=C\c1cccs1	none (no result: HCMV UL50-53 inh)
CSc1nnc2n1CCCN2	none
COc1ccc(-n2nc3c(c2NC(=O)c2ccc(S(=O)(=O)N4CCCC4)cc2)CSC3)cc1	HCMV UL50-53 inh 58.3
Cc1ccccc1-n1nc2c(c1NC(=O)c1ccc(S(=O)(=O)N3CCCCC3)cc1)CSC2	HCMV UL50-53 inh 39.7
Cc1ccc(-n2nc3c(c2NC(=O)c2ccc(S(=O)(=O)N4CCCCC4)cc2)CSC3)c(C)c1	none
COc1ccc(-n2nc3c(c2NC(=O)c2ccc(S(=O)(=O)N4CCCCC4)cc2)CSC3)cc1	none
Cc1cccc(-n2nc3c(c2NC(=O)c2ccc(S(=O)(=O)N4CCCCC4)cc2)CSC3)c1C	none (no result: HCMV UL50-53 inh)
Cc1ccc(-n2nc3c(c2NC(=O)c2ccc(S(=O)(=O)N4CCOCC4)cc2)CSC3)c(C)c1	HCMV UL50-53 inh 90.3
COc1ccc(NC(=O)C2=C(C)NC(=O)NC2c2cccc(Br)c2)cc1 (stereo unspecified)	none (no result: HCMV UL50-53 inh)
COC(=O)c1ccccc1NC(=O)C1Cc2cc(S(=O)(=O)N3CCCC3)ccc2N1C(C)=O (stereo unspecified)	none
COc1ccccc1[C@@H]1[C@@H](C(C)=O)N2c3ccccc3C=C[C@@H]2C1(C#N)C#N	none (no result: HCMV UL50-53 inh)
O=C1CN=C(Nc2ccccc2Cl)N1Cc1ccccc1	none
Cc1cccc(NC2=NCC(=O)N2Cc2ccccc2)c1	HCMV UL50-53 inh 59.4
CN(C(=O)c1nc2ccccc2nc1Cl)C1CCCCC1	none (no result: GIV Gai3 FP)
C=CCn1c(COc2ccc(CC)cc2)nnc1SCC(=O)c1cc2ccccc2o1	none (no result: GIV Gai3 FP)
CCOC(=O)N1CCN(C(=O)c2cccn3c(=O)c4cc5ccccc5cc4nc23)CC1	GIV Gai3 FP 24.1 (no result: HCMV UL50-53 inh)
Cc1ccc(C)c(N2CCN(C(=O)c3cccn4c(=O)c5ccccc5nc34)CC2)c1	none (no result: HCMV UL50-53 inh)
Cc1ccc(N2C(=O)NC(=O)/C(=C\c3ccc(O)c(Br)c3)C2=O)cc1	none
Cc1ccc(N2C(=O)NC(=O)/C(=C/c3cc(Br)c(O)cc3O)C2=O)cc1	GIV Gai3 FP -71.2
CCn1c(/C=C/C=C2\N(C)c3ccccc3C2(C)C)[n+](Cc2ccccc2)c2ccccc21	GIV Gai3 FP -32.2 (no result: HCMV UL50-53 inh)
CC[n+]1c(/C=C/C=C2\N(C)c3ccccc3C2(C)C)n(-c2ccccc2)c2ccc(C)cc21	GIV Gai3 FP -32.2 (no result: HCMV UL50-53 inh)
CC[n+]1c(/C=C/C=C2\N(C)c3ccccc3C2(C)C)n(-c2ccccc2)c2cc(Cl)ccc21	GIV Gai3 FP -32.2 (no result: HCMV UL50-53 inh)
CCn1c(C)[n+](CC)c2ccc(Cl)cc21	none (no result: GIV Gai3 FP)
CN1/C(=C\C(=O)c2ccccc2)C(C)(C)c2ccccc21	none (no result: GIV Gai3 FP)
CN1/C(=C/C=C/C=C/C=[N+](C)c2ccccc2)C(C)(C)c2ccccc21	none (no result: HCMV UL50-53 inh)
